Test system: CYP2C19
Settings: human, in vivo, po, 100 ug
Experimental: This was an open-label clinical trial with fixed sequence design consisting of a total of seven inpatient study days and eight short visits for each participant.
The CYP2C19 perpetrator fluconazole (Fluconazol HEXAL® 200 mg, HEXAL) was given for 5 days in oral doses of 400 mg on day 1 and 200 mg on days 2 to 5. […] A diary was used to ensure correct intake of fluconazole and rifampicin at home.
Blood samples were centrifuged for 10 min at 2500 g and 4 °C, and separated plasma was distributed into 4 aliquots, each stored at − 20 °C until analysis.
The statistical analysis was performed using Prism 8.4 (GraphPad Software Inc., La Jolla, CA, USA).

COc1ccc2[nH]c([S+]([O-])Cc3ncc(C)c(OC)c3C)nc2c1 (stereo not shown) [omeprazole]
VSS: 26.1 L

— article PMC9107402, “Evaluation of CYP2C19 activity using microdosed oral omeprazole in humans” (European Journal of Clinical Pharmacology, 2022)
